What is called IC50 is the concentration that inhibits the measured activity by half. High values mean lower potency, low ones higher potency.

The assay has as its target T1, Polyunsaturated fatty acid lipoxygenase ALOX12 (Homo sapiens, UniProt P18054).
T1 sequence (P18054 whole entry): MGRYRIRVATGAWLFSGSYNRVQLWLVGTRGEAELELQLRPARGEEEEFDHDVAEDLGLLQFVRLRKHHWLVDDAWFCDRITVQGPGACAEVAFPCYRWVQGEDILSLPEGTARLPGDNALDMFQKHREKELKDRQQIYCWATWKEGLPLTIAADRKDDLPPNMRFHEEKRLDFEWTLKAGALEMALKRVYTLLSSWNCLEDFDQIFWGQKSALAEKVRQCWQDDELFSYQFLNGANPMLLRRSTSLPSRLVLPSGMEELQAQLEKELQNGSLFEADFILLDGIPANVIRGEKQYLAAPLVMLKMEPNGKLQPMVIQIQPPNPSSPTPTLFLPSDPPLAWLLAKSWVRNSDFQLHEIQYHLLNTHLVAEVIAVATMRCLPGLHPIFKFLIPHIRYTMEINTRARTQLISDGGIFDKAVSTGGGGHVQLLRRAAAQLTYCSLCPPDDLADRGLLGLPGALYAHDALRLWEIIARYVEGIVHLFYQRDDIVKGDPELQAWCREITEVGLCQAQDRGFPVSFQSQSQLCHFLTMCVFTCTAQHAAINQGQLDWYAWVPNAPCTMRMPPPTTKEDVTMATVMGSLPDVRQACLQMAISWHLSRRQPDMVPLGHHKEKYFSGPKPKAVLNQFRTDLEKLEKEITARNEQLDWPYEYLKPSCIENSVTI
The assay is described as follows: Inhibition of 12-LOX.

`CC(C)=CCc1c(-c2ccc(O)cc2O)oc2c3c(cc(O)c2c1=O)OC(C)(C)C=C3` [MORUSIN] displayed a concentration for half-maximal inhibition (IC50) of 100 µM.

Values taken from ChEMBL document CHEMBL1773034 (J Nat Prod, 2011).
